Test results: patent US9556160B2, “Guanidine compound” (Astellas Pharma Inc., priority 2011, dated 2017)

The chains behind the UniProt entries cited, without tags or fusion partners. Where a name states a change or a piece, a line headed by the entry shows the natural chain unless it says otherwise.
UniProt Q16853: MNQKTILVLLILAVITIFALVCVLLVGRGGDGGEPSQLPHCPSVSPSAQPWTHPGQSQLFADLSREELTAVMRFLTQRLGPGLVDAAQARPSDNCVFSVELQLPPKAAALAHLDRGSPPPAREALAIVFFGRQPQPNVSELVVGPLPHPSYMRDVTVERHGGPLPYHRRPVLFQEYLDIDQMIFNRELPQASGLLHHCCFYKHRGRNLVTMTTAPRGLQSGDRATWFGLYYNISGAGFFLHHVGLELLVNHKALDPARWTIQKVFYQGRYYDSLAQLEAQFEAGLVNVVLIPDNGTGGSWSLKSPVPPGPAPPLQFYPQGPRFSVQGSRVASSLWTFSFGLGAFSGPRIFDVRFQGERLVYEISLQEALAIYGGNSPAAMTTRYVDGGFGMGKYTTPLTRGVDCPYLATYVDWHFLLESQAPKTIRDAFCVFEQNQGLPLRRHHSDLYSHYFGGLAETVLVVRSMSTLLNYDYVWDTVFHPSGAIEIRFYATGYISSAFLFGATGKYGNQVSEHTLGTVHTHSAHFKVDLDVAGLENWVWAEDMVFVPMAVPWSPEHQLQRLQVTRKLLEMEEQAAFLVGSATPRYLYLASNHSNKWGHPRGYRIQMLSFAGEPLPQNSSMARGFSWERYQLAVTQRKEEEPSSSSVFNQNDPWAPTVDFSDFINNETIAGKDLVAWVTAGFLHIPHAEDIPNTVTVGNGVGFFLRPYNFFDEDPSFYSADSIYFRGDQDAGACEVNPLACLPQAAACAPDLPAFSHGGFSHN
UniProt O08590: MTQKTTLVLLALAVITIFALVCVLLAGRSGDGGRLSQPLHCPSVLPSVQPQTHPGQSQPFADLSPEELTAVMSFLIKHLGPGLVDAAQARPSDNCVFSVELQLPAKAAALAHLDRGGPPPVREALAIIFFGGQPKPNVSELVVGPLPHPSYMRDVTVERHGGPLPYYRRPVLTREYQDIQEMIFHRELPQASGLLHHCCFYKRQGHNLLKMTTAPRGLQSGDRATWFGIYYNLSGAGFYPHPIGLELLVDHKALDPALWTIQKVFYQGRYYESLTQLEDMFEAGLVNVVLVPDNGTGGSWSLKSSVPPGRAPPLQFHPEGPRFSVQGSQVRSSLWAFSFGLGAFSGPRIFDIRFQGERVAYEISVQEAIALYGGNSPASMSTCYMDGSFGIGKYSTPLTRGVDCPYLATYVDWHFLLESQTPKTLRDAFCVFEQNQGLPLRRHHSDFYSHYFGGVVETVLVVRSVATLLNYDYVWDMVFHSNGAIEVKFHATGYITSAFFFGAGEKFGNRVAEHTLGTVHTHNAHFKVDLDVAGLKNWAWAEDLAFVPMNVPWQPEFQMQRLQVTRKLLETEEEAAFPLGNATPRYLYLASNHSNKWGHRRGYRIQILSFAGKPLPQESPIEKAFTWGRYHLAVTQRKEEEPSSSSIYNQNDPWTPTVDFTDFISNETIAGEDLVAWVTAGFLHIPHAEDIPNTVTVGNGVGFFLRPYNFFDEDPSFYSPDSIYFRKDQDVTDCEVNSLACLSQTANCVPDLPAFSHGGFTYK

What was measured:
[1] = test system: VAP-1 enzyme (SSAO) activity in rat plasma; experiment: Inhibitory effect on rat VAP-1 enzyme (SSAO) activity in rat plasma after oral administration; format: in vivo, Wistar male rats; details: rat plasma VAP-1 activity, oral 0.3 mg/kg; for Inhibition Ratio (%) 1 h: 1 h after administration; for Inhibition Ratio (%) 3 h: 3 h after administration; for Inhibition Ratio (%) 6 h: 6 h after administration; for Inhibition Ratio (%) 24 h: 24 h after administration
Protocol: Eight-week to twelve-week Wistar male rats were fasted for 20 hours, and orally administered with a test drug ([…]). Heparin blood collection from the tail vein was performed immediately before the administration, and at 1 h, 3 h, 6 h, 12 h, or 24 h after the administration. The resulting blood was subjected to centrifugation at 14000 rpm for 5 minutes to separate plasma, and the VAP-1 enzyme activity in the resulting plasma was measured by a radio-enzyme assay method.
For the radio-enzyme assay method, ^14C-benzylamine which is a synthetic substrate (10 μM) was reacted with the resulting plasma at 37° C., and the resulting metabolite was extracted with a mixture of toluene/ethyl acetate. The radioactivity was measured and taken as a VAP-1 enzyme activity in the plasma. The effect of the test drug was calculated from the inhibitory ratio (%) of the VAP-1 activity after the administration of the test drug relative to the VAP-1 activity in the plasma immediately before the administration.

[2] = target: human VAP-1 enzyme (SSAO) (Homo sapiens (Human), UniProt Q16853); experiment: Inhibitory effect on human VAP-1 enzyme (SSAO) activity, radiochemistry-enzymatic assay with 14C-benzylamine; format: biochemical; details: CHO-expressed human VAP-1, 14C-benzylamine 1×10^−5 mol/L
Protocol: (§1) After homogenizing CHO (Chinese Hamster Ovary) cells stably expressing a human VAP-1 enzyme (SSAO) in a 50 mM phosphate buffer containing 1% NP-40, an enzyme suspension was obtained by taking the supernatant obtained by centrifugation. The enzyme suspension was preincubated with the compound of the present invention in a 96-well microplate at room temperature for 30 minutes. Subsequently, the enzyme suspension was incubated with ^14C-benzylamine (a final concentration of 1×10^−5 mol/L) to a final volume of […] at 37° C. for 1 hour. The enzymatic reaction was stopped by the addition of 2 mol/L (50 pt) of citric acid.

[3] = target: rat VAP-1 enzyme (SSAO) (Rattus norvegicus (Rat), UniProt O08590); experiment: Inhibitory effect on rat VAP-1 enzyme (SSAO) activity, radiochemistry-enzymatic assay with 14C-benzylamine; format: biochemical; details: CHO-expressed rat VAP-1, 14C-benzylamine 1×10^−5 mol/L
Protocol: as §1, with “rat” for “human”, “μL)” for “pt)”, “acid. The oxidation products were extracted directly in a 200 μL toluene scintillator, and the radioactivity was measured with a scintillation spectrometer.” for “acid.”

| SMILES | Inhibition Ratio (%) 1 h [1] | Inhibition Ratio (%) 3 h [1] | Inhibition Ratio (%) 6 h [1] | Inhibition Ratio (%) 24 h [1] | IC50 [2] | IC50 [3] |
| --- | --- | --- | --- | --- | --- | --- |
| N=C(N)NC(=O)OCc1cccc(N2CCN(c3cccnc3)CC2)c1F [Example 293] | 59% | 83% | 72% | 60% | 19 nM | – |
| Cc1ccc(OC2CN(c3cccc(COC(=O)NC(=N)N)c3F)C2)cn1 [Example 552] | 93% | 81% | 75% | 24% | 25 nM | 5.5 nM |
